The source of these data is patent US20060046981A1, “Anti-nonmelanoma carcinoma compounds, compositions, and methods of use thereof” (GILEAD SCIENCES, INC., priority 2003, published 2006).

This experiment concerns SiHa cells. Briefly: Antiproliferation assay (7 days, Sulforhodamine B) in SiHa cells. Type of experiment: cell-based, human. How it is done:
Antiproliferation assays measure effect of compounds on proliferation of cultured cells. Cells are cultured for 7 days in the presence of various concentrations of compounds. On the 7th day, cells are stained with dye, and intensity of staining (proportional to cell number) is measured by spectrophotometer.
Cells were detached from culture flasks using trypsin, counted, and plated in 96-well culture plates (250-1000 cells per well, depending on cell type). On the next day (defined as day 0), after cells attached to the bottom of plates, 5-fold serial dilutions of compounds were added in duplicate. No compound and 10 μM colchicine (cell division inhibitor) was added to control wells, which would represent 100% proliferation and 0% proliferation, respectively.
Seven days after addition of compounds, culture plates were treated with 10% trichloroacetic acid at 4° C. for 1 hr, then washed with water. […] This generated purple color that was quantified by measuring the absorbance at 510 nm wavelength, using spectrophotometer.
Cells were detached from culture flasks using trypsin, counted, and plated in 96-well culture plates ([…], depending on cell type). […] Intensity of the color (proportional to cell number) was quantified by measuring the absorbance at 510 nm wavelength, using spectrophotometer. […]

Consider `COc1cc2c(c(N)c1OC)C(=O)/C(=C\c1cc(C)c(O)c(C)c1)C2` [Indanosine, Indanocine], for which the “Selectivity (HEL/SiHa)” value was found to be 0.27.
